Assay results taken from patent US20160031985A1, “CHARGE-ENGINEERED ANTIBODIES OR COMPOSITIONS OF PENETRATION-ENHANCED TARGETING PROTEINS AND METHODS OF USE” (PERMEON BIOLOGICS, INC., priority 2013, published 2016).

Tests used:
Assay in all cases: In vitro cytotoxicity, CellTiter-Glo Luminescent Cell Viability Assay
Format in all cases: cell-based
MDA-MB-453 cells = details: MDA-MB-453, Her2 level 255,217, 5 days
Method: (§1) On the day of assay the culture media was replaced with media containing serially diluted charged or uncharged anti-Her2 antibody drug conjugate (ADC) ranging from 0.01 nM to 100 nM. There were 3 replicates at each concentration.
(§2) One of the anti-Her2+10 antibody variants described in Examples 12 and 20 was used in this Example for comparison with anti-Her2-wt antibody. Both were conjugated to DM1 as described in Example 17. The in vitro cytotoxicity of anti-Her2 ADCs was determined as described in Example 20.

SK-BR-3 (Her2^+ cells) = details: SK-BR-3, Her2 level 602,083, 5 days
Method: as §1, §2

MCF-7 (Her2^− cells) = details: MCF-7, Her2 level 39,016, 5 days
Method: as §1, §2

JIMT-1 cells = details: JIMT-1, Her2 level 188,354, 5 days
Method: as §1, §2

For “Anti-Her2-wt-MCC-DM1: un-modified wild-type/parent anti-Her2 antibody conjugated to MCC-DM1 (T-DM1)”, the IC50 (MDA-MB-453 cells) was 0.78 nM, the IC50 (SK-BR-3 (Her2^+ cells)) was 0.22 nM and the IC50 (MCF-7 (Her2^− cells)) was 91.5 nM. It also gave an IC50 (JIMT-1 cells) of 8.2 nM.
